Data on one substance can be found in patent US20180291285A1 (Clariant International, Ltd., priority 2015, published 2018).

For this series the following is noted: 28 d. The text has this: As mentioned before. The environmental acceptability of these esterquat surfactant compounds is of essential importance for emulsion breaking operations in oil production processes.

“Dioleic acid triethanolamine esterquat [Di-oleic acid triethanolamine esterquat]”: the “biodegradation OECD 306” value was found to be 67%.
